Consider three molecules from patent publication US9156845B2, “4-(substituted amino)-7H-pyrrolo[2,3-d] pyrimidines as LRRK2 inhibitors” (Pfizer Inc., priority 2012, dated 2015).

Amino acid sequences for entries named in this document (tags omitted). Residues count along the entry.
UniProt Q5S007, 970-2527: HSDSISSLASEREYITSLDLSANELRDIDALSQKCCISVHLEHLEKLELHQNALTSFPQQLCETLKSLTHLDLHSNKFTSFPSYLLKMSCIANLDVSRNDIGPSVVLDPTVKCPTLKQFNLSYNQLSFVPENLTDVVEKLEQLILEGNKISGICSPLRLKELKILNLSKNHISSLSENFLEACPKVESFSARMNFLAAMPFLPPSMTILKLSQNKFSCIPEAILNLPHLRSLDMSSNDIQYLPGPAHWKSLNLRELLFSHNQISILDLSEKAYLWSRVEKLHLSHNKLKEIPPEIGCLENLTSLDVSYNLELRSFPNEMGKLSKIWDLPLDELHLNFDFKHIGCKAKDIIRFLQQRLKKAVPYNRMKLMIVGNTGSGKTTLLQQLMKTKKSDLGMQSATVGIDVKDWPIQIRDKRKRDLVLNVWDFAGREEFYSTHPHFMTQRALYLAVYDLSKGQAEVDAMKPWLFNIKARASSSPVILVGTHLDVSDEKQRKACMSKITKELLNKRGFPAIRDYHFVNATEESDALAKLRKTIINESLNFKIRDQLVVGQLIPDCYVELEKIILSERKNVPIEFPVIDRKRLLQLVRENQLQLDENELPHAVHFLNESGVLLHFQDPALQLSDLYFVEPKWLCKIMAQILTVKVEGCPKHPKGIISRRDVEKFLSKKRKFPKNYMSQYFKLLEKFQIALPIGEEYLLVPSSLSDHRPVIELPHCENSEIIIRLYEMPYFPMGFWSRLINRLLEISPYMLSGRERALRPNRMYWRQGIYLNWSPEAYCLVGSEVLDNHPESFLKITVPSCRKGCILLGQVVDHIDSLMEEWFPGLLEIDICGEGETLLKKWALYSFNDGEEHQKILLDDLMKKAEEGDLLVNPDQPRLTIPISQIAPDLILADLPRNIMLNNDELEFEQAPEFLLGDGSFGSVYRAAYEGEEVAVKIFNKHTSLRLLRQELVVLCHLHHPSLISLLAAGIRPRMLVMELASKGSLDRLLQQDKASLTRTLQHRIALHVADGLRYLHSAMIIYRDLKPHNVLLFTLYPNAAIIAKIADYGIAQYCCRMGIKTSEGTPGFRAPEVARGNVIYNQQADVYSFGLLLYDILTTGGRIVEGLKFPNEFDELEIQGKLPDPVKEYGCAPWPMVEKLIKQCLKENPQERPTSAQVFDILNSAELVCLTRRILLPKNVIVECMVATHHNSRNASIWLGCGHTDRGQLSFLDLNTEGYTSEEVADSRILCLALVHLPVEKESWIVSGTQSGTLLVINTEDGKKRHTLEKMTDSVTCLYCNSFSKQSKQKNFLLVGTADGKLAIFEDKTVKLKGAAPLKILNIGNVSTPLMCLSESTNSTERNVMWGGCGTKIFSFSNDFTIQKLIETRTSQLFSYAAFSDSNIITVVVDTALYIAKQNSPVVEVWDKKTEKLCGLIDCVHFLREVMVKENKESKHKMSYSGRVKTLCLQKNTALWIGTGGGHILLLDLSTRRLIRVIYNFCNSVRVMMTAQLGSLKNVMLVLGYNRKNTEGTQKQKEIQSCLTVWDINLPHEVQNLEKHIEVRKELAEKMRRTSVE
UniProt Q5S007, 970-2527 G2019S: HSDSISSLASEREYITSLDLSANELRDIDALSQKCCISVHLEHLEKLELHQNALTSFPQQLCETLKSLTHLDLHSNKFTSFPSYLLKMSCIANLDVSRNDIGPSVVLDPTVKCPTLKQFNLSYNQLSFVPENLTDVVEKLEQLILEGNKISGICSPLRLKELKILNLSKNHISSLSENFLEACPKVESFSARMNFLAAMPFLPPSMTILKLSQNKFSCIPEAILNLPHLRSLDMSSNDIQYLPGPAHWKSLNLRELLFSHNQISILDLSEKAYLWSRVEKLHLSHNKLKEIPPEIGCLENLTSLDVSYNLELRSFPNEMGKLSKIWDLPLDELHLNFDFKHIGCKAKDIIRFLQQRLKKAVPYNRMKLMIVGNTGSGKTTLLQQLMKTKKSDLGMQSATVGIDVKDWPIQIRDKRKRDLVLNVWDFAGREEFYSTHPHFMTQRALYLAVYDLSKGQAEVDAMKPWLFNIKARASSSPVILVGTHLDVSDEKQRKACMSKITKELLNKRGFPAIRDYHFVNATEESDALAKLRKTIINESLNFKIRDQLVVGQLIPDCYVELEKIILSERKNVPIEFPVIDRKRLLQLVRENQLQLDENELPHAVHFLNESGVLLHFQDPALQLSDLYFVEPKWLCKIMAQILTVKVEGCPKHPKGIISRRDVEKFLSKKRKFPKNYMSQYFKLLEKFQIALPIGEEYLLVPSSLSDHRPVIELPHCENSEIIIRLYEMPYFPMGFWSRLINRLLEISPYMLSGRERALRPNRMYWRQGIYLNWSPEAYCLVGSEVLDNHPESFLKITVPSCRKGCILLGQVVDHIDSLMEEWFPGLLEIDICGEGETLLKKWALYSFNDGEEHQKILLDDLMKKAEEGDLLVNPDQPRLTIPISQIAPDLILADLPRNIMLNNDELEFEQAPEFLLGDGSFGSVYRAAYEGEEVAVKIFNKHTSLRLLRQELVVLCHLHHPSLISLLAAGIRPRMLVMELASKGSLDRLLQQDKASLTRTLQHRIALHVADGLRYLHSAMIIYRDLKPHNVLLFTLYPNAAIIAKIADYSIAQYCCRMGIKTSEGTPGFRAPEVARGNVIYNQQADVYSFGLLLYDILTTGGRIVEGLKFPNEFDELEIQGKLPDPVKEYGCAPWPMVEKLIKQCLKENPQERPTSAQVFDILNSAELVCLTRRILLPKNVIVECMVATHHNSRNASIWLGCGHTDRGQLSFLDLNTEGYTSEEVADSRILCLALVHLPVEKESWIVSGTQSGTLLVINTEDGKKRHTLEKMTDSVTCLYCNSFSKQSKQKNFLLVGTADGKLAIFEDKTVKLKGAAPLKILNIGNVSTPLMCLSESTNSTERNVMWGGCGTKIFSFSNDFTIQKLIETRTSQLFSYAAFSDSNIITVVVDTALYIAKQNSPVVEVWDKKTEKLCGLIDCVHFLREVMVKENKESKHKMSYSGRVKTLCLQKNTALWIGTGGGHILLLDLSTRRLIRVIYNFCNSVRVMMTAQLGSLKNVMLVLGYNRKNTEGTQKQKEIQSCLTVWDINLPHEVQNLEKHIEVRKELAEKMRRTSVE

What is called IC50 is the concentration that inhibits the measured activity by half.

Assay [1] has as its target GST-tagged truncated LRRK2 (Homo sapiens (Human), UniProt Q5S007). In words: LRRK2 Lantha Screen kinase assay. The following applies: geometric mean of 2-5 determinations unless otherwise indicated (a: >=6 determinations; b: single determination); read-out: LRRK2 WT IC50. In kind it is biochemical. As for the experimental part:
LRRK2 kinase activity was measured using Lantha Screen technology from Invitrogen. GST-tagged truncated LRRK2 from Invitrogen (Cat # PV4874) was incubated with a fluorescein-labeled peptide substrate based upon ezrin/radixin/moesin (ERM), also known as LRRKtide (Invitrogen cat #PR8976A), in the presence of a dose response of compound. Upon completion, the assay was stopped and detected with a terbium labeled anti-phospho-ERM antibody (Invitrogen, cat #PR8975A). […] The compound dose response was prepared by diluting compound to a top concentration of 3.16 mM in 100% DMSO and serial diluted by half-log in DMSO 11 times. Aliquots (3.5 μL) of the 100% DMSO dose response were mixed with 46.5 μL water then 1 μL of this mixture was added to the 3 μL substrate mix in the 384-well plate. The kinase reaction was started with 3 μL of a working solution of LRRK2 enzyme at a concentration of 4 μg/mL. The final reaction concentrations were 100 nM LRRKtide, 50 μM ATP, 1.7 μg/mL LRRK2 enzyme and a compound dose response with a top dose of 32 μM. […] After an incubation of 1 hour at room temperature, the plate was read on an Envision with an excitation wavelength of 340 nm and a reading emission at both 520 nm and 495 nm. […]

In the next assay the target is mutant G2019S LRRK2 (Homo sapiens (Human), UniProt Q5S007, G2019S). In words: LRRK2 Lantha Screen kinase assay, mutant enzyme. In kind it is biochemical. The following applies: geometric mean of 2-5 determinations unless otherwise indicated (a: >=6 determinations; b: single determination). Here is the method:
LRRK2 kinase activity was measured using Lantha Screen technology from Invitrogen. GST-tagged truncated LRRK2 from Invitrogen (Cat # PV4874) was incubated with a fluorescein-labeled peptide substrate based upon ezrin/radixin/moesin (ERM), also known as LRRKtide (Invitrogen cat #PR8976A), in the presence of a dose response of compound. Upon completion, the assay was stopped and detected with a terbium labeled anti-phospho-ERM antibody (Invitrogen, cat #PR8975A). […] The compound dose response was prepared by diluting compound to a top concentration of 3.16 mM in 100% DMSO and serial diluted by half-log in DMSO 11 times. Aliquots (3.5 μL) of the 100% DMSO dose response were mixed with 46.5 μL water then 1 μL of this mixture was added to the 3 μL substrate mix in the 384-well plate. The kinase reaction was started with 3 μL of a working solution of LRRK2 enzyme at a concentration of 4 μg/mL. The final reaction concentrations were 100 nM LRRKtide, 50 μM ATP, 1.7 μg/mL LRRK2 enzyme and a compound dose response with a top dose of 32 μM. The reaction was allowed to progress at room temperature for two hours and then stopped with the addition of 7 μL of detection buffer (20 mM Tris pH 7.6, 0.01% NP-40, 0.02% NaN3, 6 mM EDTA with 2 nM terbium labeled anti-phospho-ERM). After an incubation of 1 hour at room temperature, the plate was read on an Envision with an excitation wavelength of 340 nm and a reading emission at both 520 nm and 495 nm. The ratio of the 520 nm and 495 nm emission was used to analyze the data.
Inhibition of mutant G2019S LRRK2 (Invitrogen cat #PV4881) was measured in the exact same method. All final concentrations of substrate ATP and enzyme were the same.

Turning to `Cc1nc(C2CN(c3ncnc4[nH]cc(-c5cccc(C#N)c5)c34)CCO2)no1` (centres unmarked) [Example 112, 3-{4-[2-(5-methyl-1,2,4-oxadiazol-3-yl)morpholin-4-yl]-7H-pyrrolo[2,3-d]pyrimidin-5-yl}benzonitrile], the values for the IC50 (in assay [1]; against mutant G2019S LRRK2) were 10 nM and 41 nM, respectively.
The like results for `N#Cc1cccc(-c2c[nH]c3ncnc(N4C[C@@H]5CCO[C@@H]5C4)c23)c1` (relative stereo) [Example 206, rel-3-{4-[(3aS,6aS)-hexahydro-5H-furo[2,3-c]pyrrol-5-yl]-7H-pyrrolo[2,3-d]pyrimidin-5-yl}benzonitrile] were, in that order, 139 nM and 591 nM.
Consider `Cc1nc(C2CN(c3ncnc4[nH]cc(-c5cccc(C#N)c5)c34)CCO2)no1` (single isomer, unassigned) [Example 195], for which the midpoint of inhibition against mutant G2019S LRRK2, the IC50, lay at 73 nM.
